Values of other authors as cited in article PMC7027746 (Clinical Pharmacology in Drug Development, 2019).

Test system: crizotinib‐naive patients with ALK‐positive NSCLC
Conditions: phase 3 trial; cited from earlier work

For `C[C@@H](Oc1cc(-c2cnn(C3CCNCC3)c2)cnc1N)c1c(Cl)ccc(F)c1Cl` [crizotinib], the “12‐month progression‐free survival” value is given as 43%.
